Results reported in patent publication US5610319A, “Compound useful as antiproliferative agents and GARFT inhibitors” (Agouron Pharmaceuticals, Inc., priority 1995, dated 1997).

Tested on: C3H/BA mammary adenocarcinoma
Format: in vivo, C3H/He female mice
Settings: 5 mg/kg, intraperitoneal, once daily for nine days
Protocol: On day zero, 2 mm^2 trocar fragments of C3H/BA mammary adenocarcinoma were implanted subcutaneously in the axillary region into groups of six C3H/He female mice. Starting on day 1, the test compound was administered intraperitoneally in 40% Encapsin given once daily for nine days. Control animals received identical treatment without test compound. The percentage of inhibition was calculated by comparing the mass of the control tumors (receiving diluent only) on day 14 to those of animals receiving test compound.

In the case of `Nc1nc2c(c(=O)[nH]1)SC(CCc1ccc(C(=O)N[C@@H](CCC(=O)O)C(=O)O)s1)CN2` (stereo partly drawn) [Compound 21, 4-[2-(2-Amino-4-oxo-4,6,7,8-tetrahydro-3H-pyrimido[5,4-6][1,4]thiazin-6-yl)-ethyl]-2,5-thienoylamino-L-glutamic acid], the Survivors is reported as 5/6.
